Assay type in all cases: cell-based
One assay has as its system MCF7 cells. In words: Cell growth (alamar blue). To be noted: 1-100 nM, data not shown.
The test system of another assay is HER2. Nature of the assay: Western blot of SkBr3 cell lysates. As to conditions: SkBr3 cells, 24 h.
The test system of another assay is cyclin D1. Nature of the assay: Western blot of SkBr3 cell lysates. As to conditions: SkBr3 cells, 24 h.

For “trastuzumab: recombinant DNA-derived humanized monoclonal antibody (IgG1 kappa) that binds the extracellular domain of HER2”, in the assay with MCF7 cells, the effect on proliferation result is “no significant effect”. Besides, in the assay on HER2, the HER2 levels result is listed as “modest effect”. Also, the “cyclin D1 levels” value in the assay on cyclin D1 is listed as “no apparent effect”.
